Measured values taken from US7125671B2, “Nucleic acid amplification with terminal-phosphate labeled nucleotides” (GE Healthcare Bio-Sciences Corp., priority 2003, dated 2006).

Test: Non-enzymatic hydrolysis of dT4P-DDAO in the presence of MnCl2, effect of other salts (FIG. 5)
Conditions: 10 or 25 mM salt; 0.5 mM MnCl2; 25 mM Hepes pH 8.1; 95° C. for 60 minutes
Protocol: Twenty μl of 25 mM Hepes, pH 8.1, containing 0.5 mM MnCl2, 1 μm dT4P-DDAO and 10 or 25 mM inorganic or organic salt (see FIG. 5) was heated at 95° C. for 60 minutes. 4 μl of each sample was treated with BAP as described above and read on Tecan ultra plate reader. An unheated sample with MnCl2 (water lane) and a heated sample without Hepes and MnCl2 were used as controls. Fluorescence counts were converted into % degradation as described above.

**Q.** With sodium vanadate as the substance, how does the “stabilization of dT4P-DDAO (% degradation)” value read?
**A.** The value was “stabilize the nucleotide”.
